The subject of assay [1] is T-REx-293 cells silenced for hVDAC1 expression. Description: Cell death triggered by tetracycline-induced over-expression. It is filed as cell-based, human. The conditions noted are these: over-expression induced by 2.5 μg/ml tetracycline. As to the method:
(§1) Apoptotic cell death was analyzed by Acridine Orange/Ethidium Bromide staining.
(§2) T-REx-293 cells correspond to a transformed primary human embryonal kidney cell line, expressing the tetracycline repressor. hVDAC1-shRNA T-REx-293 cells stably expressing the pSUPERretro plasmid encoding shRNA targeting hVDAC1 were obtained and grown as described previously (Abu-Hamad et al. (2006), supra). The expression of hVDAC 1 in these cells is suppressed by 70-96% due to a gene silencing. hVDAC1-shRNA T-REx-293 cells expressing mVDAC1 or Δ(1-26)mVDAC1 were obtained by transfecting hVDAC1-shRNA-T-REx-293 cells with plasmid mVDAC1- or Δ(1-26)mVDAC1-pcDNA4/TO. Cells were grown with 200 μg/ml zeocin, 0.5 μg/ml puromycin and 5 μg/ml blasticidine, with mVDAC1 or Δ(1-26)mVDAC1 expression under tetracycline control. Cell viability was analyzed by staining with acridine orange and ethidium bromide in PBS (Zaid et al. (2005). Cell death and differentiation, 12, 751-760). Images were recorded using Zeiss LSM510 confocal or Olympus IX51 fluorescence microscopes. Mitochondria preparation and measurements of ATP levels and Ca^+ accumulation were carried out as previously described (Abu-Hamad et al. (2006), supra).
Native and truncated mVDAC1 expression was induced by low (1.0 μg/ml) or high (2.5 μg/ml) tetracycline (Tet) in T-REx-293 cells silenced for hVDAC1 expression.

The subject of assay [2] is hVDAC1-shRNA-T-REx-293 cells. In words: Apoptosis induced by various stimuli in cells expressing native or truncated mVDAC1. It is filed as cell-based, human. The note with it: curcumin (100 μM), As2O3 (60 μM) or STS (1.25 μM). As to the method: as §1
T-REx-293 cells correspond to a transformed primary human embryonal kidney cell line, expressing the tetracycline repressor. hVDAC1-shRNA T-REx-293 cells stably expressing the pSUPERretro plasmid encoding shRNA targeting hVDAC1 were obtained and grown as described previously (Abu-Hamad et al. (2006), supra). The expression of hVDAC 1 in these cells is suppressed by 70-96% due to a gene silencing. hVDAC1-shRNA T-REx-293 cells expressing mVDAC1 or Δ(1-26)mVDAC1 were obtained by transfecting hVDAC1-shRNA-T-REx-293 cells with plasmid mVDAC1- or Δ(1-26)mVDAC1-pcDNA4/TO. Cells were grown with 200 μg/ml zeocin, 0.5 μg/ml puromycin and 5 μg/ml blasticidine, with mVDAC1 or Δ(1-26)mVDAC1 expression under tetracycline control. Cell viability was analyzed by staining with acridine orange and ethidium bromide in PBS (Zaid et al. (2005). Cell death and differentiation, 12, 751-760). Images were recorded using Zeiss LSM510 confocal or Olympus IX51 fluorescence microscopes. Mitochondria preparation and measurements of ATP levels and Ca^+ accumulation were carried out as previously described (Abu-Hamad et al. (2006), supra). […]

Another assay has as its target T1, HK-I (Rattus norvegicus, UniProt P05708).
T1 construct: Purified rat brain HK-I; from tissue; host or cells: rat brain
T1 sequence (P05708 1-918): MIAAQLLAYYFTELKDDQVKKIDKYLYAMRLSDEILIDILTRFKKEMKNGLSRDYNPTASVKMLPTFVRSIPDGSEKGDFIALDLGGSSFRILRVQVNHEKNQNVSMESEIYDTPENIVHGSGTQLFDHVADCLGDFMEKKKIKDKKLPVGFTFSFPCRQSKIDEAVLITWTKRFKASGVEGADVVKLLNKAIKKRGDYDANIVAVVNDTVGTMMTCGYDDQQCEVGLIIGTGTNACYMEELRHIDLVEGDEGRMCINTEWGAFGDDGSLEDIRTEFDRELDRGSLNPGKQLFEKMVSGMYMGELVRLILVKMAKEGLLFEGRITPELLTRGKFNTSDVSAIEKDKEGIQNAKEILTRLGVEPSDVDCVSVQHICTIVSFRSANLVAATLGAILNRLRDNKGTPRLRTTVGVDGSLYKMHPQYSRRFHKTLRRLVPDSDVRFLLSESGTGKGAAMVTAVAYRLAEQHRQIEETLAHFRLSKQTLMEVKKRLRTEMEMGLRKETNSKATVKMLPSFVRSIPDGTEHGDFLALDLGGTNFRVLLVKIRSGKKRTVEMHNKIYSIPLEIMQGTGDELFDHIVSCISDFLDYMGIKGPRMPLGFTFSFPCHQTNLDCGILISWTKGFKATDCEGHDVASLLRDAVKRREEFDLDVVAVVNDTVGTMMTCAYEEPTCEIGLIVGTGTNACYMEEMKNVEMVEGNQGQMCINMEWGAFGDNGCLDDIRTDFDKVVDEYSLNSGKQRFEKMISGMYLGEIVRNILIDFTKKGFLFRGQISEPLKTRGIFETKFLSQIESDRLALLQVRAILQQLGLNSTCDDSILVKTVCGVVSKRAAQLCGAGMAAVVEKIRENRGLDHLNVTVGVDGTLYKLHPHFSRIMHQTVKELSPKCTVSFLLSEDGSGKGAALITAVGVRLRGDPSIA
Description: Effect of HK-I on channel activity of bilayer-reconstituted VDAC1. The note with it: HK-I (28 mU/ml), voltage step 0 to +40 mV. The class given is biochemical. How it is done: (§3) Reconstitution of purified native or Δ(1-26)mVDAC1 into planar lipid bilayers (PLB), channel recording and analysis were carried out as previously described (Gincel et al. (2001). Biochem J 358 (Pt 1), 147-155). Briefly, PLB were prepared from soybean asolectin dissolved in n-decane (50 mg/ml) in a chamber containing 10 mM Hepes/KOH, pH 7.4 and 0.5 or 1M NaCl (cis/trans). Only PLBs with a resistance greater than 100 GΩ were used. Purified VDAC (about 1 ng) was added to the chamber defined as the cis side. After insertion of one or more channels into the PLB, excess protein was removed by perfusion of the cis chamber with 20 volumes of a same solution. Currents were recorded under voltage-clamp mode using a Bilayer Clamp amplifier (Warner Instruments, Hamden, Conn.). Currents were measured with respect to the trans side of the membrane (ground). The currents were low-pass filtered at 1 kHz, using a Bessal filter (Frequency Devices, Haverhill, Mass.) and digitized on-line using a Digidata 1200 interface board and pCLAMP 6 software (Axon Instruments). Sigma Plot 2000 scientific software was used for data analyses. Experiments were performed at 23-25° C.
Native and Δ(1-26)mVDAC1 were expressed in porin-less yeast, purified and reconstituted into planar lipid bilayers. […]

Assay [3] deals with hVDAC1-shRNA T-REx-293 cells. Description: Cytochrome c release induced by staurosporine (STS). It is filed as cell-based, human. The note with it: STS (1.25 μM) for 5 h; Western blotting. How it is done:
hVDAC1-shRNA T-REx-293 cells stably expressing native or Δ(1-26)mVDAC1 were grown on 60 mm plates. Native or truncated mVDAC1 expression was triggered by tetracycline (1 μg/ml). Seventy-two hours later, cells were exposed to STS (1.25 μM) for 5 h. Cells were harvested, washed twice with PBS, incubated on ice for 1 h in extraction buffer (200 mM manitol, 70 mM sucrose, 1 mM EGTA, 1 mM EDTA, 10 μg/ml leupeptine, 1 mM PMSF, 1 mg/ml BSA, 10 mM HEPES, pH 7.5) and then lysed with a Dounce homogenizer by 25 strokes. Homogenates were centrifuged (1000×g) at 4° C. for 10 min and the supernatants were re-centrifuged at 15,000×g for 30 min at 4° C. Aliquots (10 μl) of the resultant supernatants, designated as the cytosolic fraction, were immediately boiled in SDS-PAGE sample buffer and resolved by SDS-PAGE on Tris-Tricine gels (13% polyacrylamide) and immunoblotted using monoclonal anti-cytochrome c antibodies. To rule out mitochondrial contamination of the cytosolic fraction, the presence of VDAC was tested by immunoblotting. Although supernatants from the different treated cultures were derived from equal number of cells, protein concentration in the total cells lysates were estimated as well as, actin levels were analyzed by immunoblotting using anti-actin antibodies.

Assay [4] concerns hVDAC1-shRNA-T-REx-293 cells. Description: Restoration of cell growth in T-REx-293 cells silenced for hVDAC1. The class given is cell-based, human. The conditions noted are these: expression under tetracycline control; Trypan-Blue counting.
From the text: as §2
VDAC protein provides the major pathway for nucleotides, Ca^2+ and other metabolites moving across the outer mitochondrial membrane (OMM). […]

Assay [5] is described as follows: Channel conductance of purified VDAC reconstituted into planar lipid bilayer. The class given is biochemical. How it is done:
as §3

B1: mVDAC1: native mouse VDAC1 protein (NP_035824) (protein, listed as Mus musculus)
chain: MAVPPTYADLGKSARDVFTKGYGFGLIKLDLKTKSENGLEFTSSGSANTETTKVNGSLETKYRWTEYGLTFTEKWNTDNTLGTEITVEDQLARGLKLTFDSSFSPNTGKKNAKIKTGYKREHINLGCDVDFDIAGPSIRGALVLGYEGWLAGYQMNFETSKSRVTQSNFAVGYKTDEFQLHTNVNDGTEFGGSIYQKVNKKLETAVNLAWTAGNSNTRFGIAAKYQVDPDACFSAKVNNSSLIGLGYTQTLKPGIKLTLSALLDGKNVNAGGHKLGLGLEFQA
Turning to B1, the “cell death on over-expression” value in assay [1] is “triggered cell death on day 4 and complete cell death by day 5”. Also, the “sensitivity of expressing cells to induced apoptosis” value in assay [2] is “sensitive”. For the same molecule, in the assay with HK-I, the “effect of HK-I on channel activity” value is on record as “induced the channel to fluctuate between the fully open, sub-conducting state to a stable, long-lived low-conducting state”. Further, the “cytochrome c release into the cytosol” value in assay [3] is “released”. Further, in assay [4], the “cell growth in cells silenced for hVDAC1” value is listed as “restored”. The molecule also registered a maximal conductance in assay [5] (at 1M NaCl) of 4 nS. Moreover, in assay [5] (planar lipid bilayer, FIG. 4), the “voltage dependence of conductance” value was “typical voltage-dependence conductance”.

(Values after patent publication US8440788B2, “N-terminal VDAC variants and uses thereof” (Ben-Gurion University of The Negev Research and Development …, priority 2006, dated 2013).)
